Legend:
[1] = biological target: T1, human cloned A3 Adenosine Receptor (Homo sapiens, UniProt P0DMS8); assay: Human cloned A3 adenosine receptor binding, [125I]AB-MECA, HEK-293 membranes; details: ratio of Ki values
T1 construct: purchased Research Biochemical International, Natick, Mass., USA; host or cells: HEK-293 cells (transfected), membranes

By UniProt entry, the sequences of proteins in these tests, tags left out.
UniProt P0DMS8, whole entry: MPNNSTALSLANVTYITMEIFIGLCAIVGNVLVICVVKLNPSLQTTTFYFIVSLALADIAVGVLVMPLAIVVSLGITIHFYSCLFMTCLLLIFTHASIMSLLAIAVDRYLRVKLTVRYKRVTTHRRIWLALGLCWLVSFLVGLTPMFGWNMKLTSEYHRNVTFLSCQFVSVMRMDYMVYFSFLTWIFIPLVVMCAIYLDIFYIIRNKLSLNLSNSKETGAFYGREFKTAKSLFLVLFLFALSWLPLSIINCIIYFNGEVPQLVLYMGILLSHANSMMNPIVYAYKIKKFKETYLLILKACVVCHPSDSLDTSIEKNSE

[2] = tested on: A375 cells; assay: Flow cytometry cell cycle (G2/M) and apoptosis (sub-G1) analysis, A375; assay type: cell-based, human; details: antagonist 10 μM
Description: Flow Cytometry Analysis: A375 and NCTC2544 adherent cells were trypsinized, mixed with floating cells, washed with PBS and permeabilised in 70% (vol/vol) ethanol/PBS solution at 4° C. for at least 24 hours. Jurkat, HeL023 and PBMC cells were centrifuged for 10 minutes at 1000×g. The cell pellet was then resuspended and permeabllised in 70% (vol/vol) ethanol/PBS solution at 4° C. for at least 24 hours. The cells were washed with PBS and the DNA was stained with a PBS solution, containing 20 μg/ml of propidium iodide and 100 μg/ml of RNAse, at room temperature for 30 minutes. Cells were analysed by FACScan (Becton-Dickinson) and the content of DNA was evaluated by the Cell-LISYS program (Becton-Dickinson). Cell distribution among cell cycle phases and apoptotic cells was evaluated as previously described (Secchiero et al., 2001). Briefly, the cell cycle distribution is shown as the percentage of cells containing 2n (G1 phase), 4n (G2 and M phases), 4n>x>2n. DNA amount (S phase) judged by propidium iodide staining. The apoptotic population is the percentage of cells with DNA content lower than 2n.
After 24 hours, cells were collected for flow cytometry analysis. PD 98059 was used at 20 uM as an inhibitor of MEK to prevent MEK-1 activation. […]
EC50 values were obtained by analysing G2/M accumulation dose response curve. ECMAX values were obtained by analysing sub-G1 accumulation dose response curve. Paclitaxel values have units of ng/ml.

Compound	rA1/hA3 [1]	rA2A/hA3 [1]	fold reduction of paclitaxel EC50 (G2/M accumulation) [2] [fold]	fold reduction of paclitaxel ECMAX (apoptosis) [2] [fold]	fold reduction of vindesine EC50 (G2/M accumulation) [2] [fold]	fold reduction of vindesine ECMAX (apoptosis) [2] [fold]
CCCn1cc2c(nc(NC(=O)Nc3ccc(OC)cc3)n3nc(-c4ccco4)nc23)n1 [MRE3008F20, 5-[[(4-Methoxyphenyl)amino]carbonyl]amino-8-propyl-2-(2-furyl)-pyrazolo[4,3-e]1,2,4-triazolo[1,5-c]pyrimidine]	>34,482	6,872	1.9	2.0	4.0	2.1
CN(C)c1ccc(NC(=O)Nc2nc3nn(C)cc3c3nc(-c4ccco4)nn23)cc1 [IL-11, N-1-(4-dimethylamino-phenyl)-N′-5-[8-methyl-2-(2-furyl)-pyrazolo[4,3-e]1,2,4-triazolo[1,5-c]pyrimidine]-urea]	>6700	>6700	–	–	–	–
CCN(CC)c1ccc(NC(=O)Nc2nc3nn(C)cc3c3nc(-c4ccco4)nn23)cc1.Cl [IL-10, N-1-(4-diethylamino-phenyl)-N′—S-[8-methyl-2-(2-furyl)-pyrazolo[4,3-e]1,2,4-triazolo[1,5-c]pyrimidine]-urea]	21.5	19.4	–	–	–	–

— patent publication US20060204502A1 (priority 2004, published 2006)
